# Patent US20180036433A1, “COMPOUNDS FOR THE DIAGNOSIS OR TREATMENT OF DISORDERS ASSOCIATED WITH PROTEIN OR PEPTIDE OLIGOMERS” (Agency for Science, Technology and Research, priority 2014, published 2018)
# Amino acid sequences for entries named in this document (tags omitted). Residues count along the entry.
# UniProt P05067, 672-711 limits assumed: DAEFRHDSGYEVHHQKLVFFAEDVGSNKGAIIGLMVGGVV
# Experiments:
# Aβ oligomers = Aβ oligomers (Homo sapiens, UniProt P05067); test: Saturation binding assay (fluorescence, Scatchard plot) with Aβ oligomers; settings: saturation binding fit of FIG. 4
# [1] = biological target: monomers, oligomers and fibrils of Aβ (synthetic Aβ1-40) (Homo sapiens, UniProt P05067); test: Fluorescence response to pre-formed Aβ monomers, oligomers and fibrils; type: binding; settings: dye 5 μM, Aβ 20 μM
# [2] = biological target: Aβ1-40 on-fibril pathway oligomers (Homo sapiens, UniProt P05067); test: Time-dependent Aβ fibril formation monitored by dye fluorescence; type: binding; settings: dye 5 μM, Aβ 20 μM, 37° C.
# Aβ oligomers in AD brain = test: Brain tissue staining, co-localization with A11 oligomer-specific antibody
# [3] = test system: APP K670N/M671L/PS1 M146L (APP/PS1) Tg mice; test: Chronic I.P. treatment of APP/PS1 Tg mice with sensorimotor and radial arm maze testing; type: in vivo, mouse
# [4] = test system: Aβ oligomers/plaques in APP/PS1 transgenic mouse brain
compound,measurement,setting,value
CCOc1cccc(/C=C/c2cc(C)c3n2[B-](F)(F)[N+]2=C(CCC(=O)OCC(Cl)(Cl)Cl)C=CC2=C3)c1O,"Bmax, best-fit value (statistics of FIG. 4)",Aβ oligomers,7.886
same,"fluorescence response to Aβ monomers, oligomers and fibrils",[1],highest fluorescence enhancement was observed upon incubation with Aβ oligomers
same,fluorescence over the time course of Aβ fibril formation,[2],"reached maximum fluorescence intensity at about day-1 incubation, followed by a decrease in signal"
same,overlap of staining with areas labeled by A11 oligomer-specific antibody,Aβ oligomers in AD brain,significant overlap with areas labeled by the A11 oligomer-specific antibody
same,locomotor activity versus vehicle-treated Tg mice,[3]; 0.03 mg/kg I.P. twice per week for 2 months,No differences in locomotor activity
same,errors on radial arm maze versus vehicle-treated Tg mice,"[3]; 0.03 mg/kg I.P. twice per week for 2 months, tested at age 6 months, p<0.001",clear cognitive benefit with fewer errors on the radial arm maze
same,presence of compound in mouse brain,[3]; after one-month I.P. treatment,presence of BDP-1 in mouse brain
same,fluorescent labeling of plaques in brain after I.P. injection,"[4]; 18 month old APP/PS1 mice, 0.28 mg/kg I.P., brains removed 24 hr after injection",led to fluorescent labeling of plaques
same,blood-brain barrier penetration,"[4]; APP/PS1 mice, I.P., 0.28 mg/kg",successfully penetrated the BBB
same,toxicity in vivo,"[4]; APP/PS1 mice, I.P., 0.28 mg/kg",without toxicity
